According to paper PMC8202330, “Phosphorylation of the LIR Domain of SCOC Modulates ATG8 Binding Affinity and Specificity” (Journal of Molecular Biology, 2021):

Key:
[1] = biological target: SCOC LIR peptide phosphorylated at S12 and S18 (BLI) (human); test: BLI; biotinylated LIR peptide immobilized on streptavidin biosensor, ATG8 in solution; 25 mM Tris pH 7.5, 150 mM NaCl, 0.5 mM TCEP, 0.1% Tween20, 1 mg/ml BSA; 25 °C; Kd from response against concentration
[2] = biological target: SCOC pS12/pT15 LIR peptide (human); test: as above

LC3B (for BLI) (from UniProt Q9GZQ8 1-120) (natural protein)
fold increase in affinity over SCOC WT LIR peptide [1]: 34 fold
fold increase in affinity over SCOC WT LIR peptide [2]: 56 fold
